Screening results from PubChem BioAssay.
Yeast UUG start: modulators of start codon recognition fidelity in yeast; AID 602363; activity score, % at 18.7 µM; S. cerevisiae UUG-firefly luciferase reporter, luminescence/redox ratio; actives 0.13% (n = 350,000);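 active = replicate mean at a twofold rise or more, about +100% in these data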;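 note: firefly luciferase made from a UUG start codon reports start codon fidelity; reporter light over untreated wells divided by growth signal over untreated wells; some hits fall short of that in this replicate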
CDK5 p35 inh: CDK5/p35 (human) kinase inhibition; Q00535+Q15078; Recombinant CDK5/p35, ADP-Glo luminescence, 60 min; inhibition, % at 10 µM; 330,000 compounds, 0.01% hits;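 active = highest replicate inhibition of at least 50% and at least 75% of replicates reaching 50%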
dFosB activator: activators of mouse delta FosB homodimer. P13346. purified delta FosB, TAMRA-CDK5 oligo fluorescence polarization; percent of positive-control signal above neutral wells. activation, % at 25 µM. 340,000 compounds, 0.99% hits;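 active = mean activation above about 17%, with every replicate also reaching it, limit read from the data, passing the limit was not always enough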
CAL PDZ FP-1: inhibitors of human CAL PDZ peptide binding. inhibition, % at 20 µM. purified CAL PDZ, TMR-peptide fluorescence polarization, 1 h. 330,000 compounds, 0.02% hits. Q9HD26;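 active = highest replicate inhibition of at least 40%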
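Read-out basis: mP drop reported as inhibition | Assay system: Tagged CAL PDZ protein CerCALP, purified | Benchmarks: Unlabelled peptide for full inhibition, DMSO wells as neutral | Schedule: 1 h incubation at room temperature before polarization reading | Buffer or medium: Sodium phosphate/NaCl buffer pH 7.4 with TCEP, IgG, Thesit | Doses: Single point, 20 µM | Measured by: Fluorescence polarization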
CAL PDZ FP-2: blocks peptide binding to the human CAL PDZ domain; Q9HD26; purified CAL PDZ, TMR-peptide fluorescence polarization, 1 h; inhibition, % at 24.9 µM; 300,000 compounds, 0.92% hits;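 active = mean inhibition of at least 30% with at least half of replicates also reaching 30%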
DYRK1A inh: blocks rat Dyrk1A kinase activity; Q63470; ADP-Glo luminescence, NFATc1 peptide; inhibition, % at 12.5 µM; 310,000 compounds, 0.43% hits; in the data active = inhibition above about 50%
ADP-Glo artifact: interferes with ADP-Glo luciferase readout without Dyrk1A | shares compounds with DYRK1A inh | ADP-Glo luciferase artifact assay, no Dyrk1A, luminescence | AC50, µM (doses to about 12 µM) | 1,300 tested, under 10 active;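 active = fitted half-maximal dose AC50 no more than ten times the top valid tested dose, with luminescence dropping as dose rises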
Hits are given with their value; – = inactive; · = no result given; ! = not confirmed by another sample. Shown are actives, neighbours in structure and some others; about 1.7% of the full set was active somewhere.

SMILES	Yeast UUG start	CDK5 p35 inh	dFosB activator	CAL PDZ FP-1	CAL PDZ FP-2	DYRK1A inh	ADP-Glo artifact
COc1cc(/C=C2\SC(=Nc3ccccc3)NC2=O)cc(Cl)c1O	–	–	–	–	–	51	–
COC(=O)c1oc2ccc(OC)cc2c1N	–	–	–	–	–	70	–
CCOC(=O)Nc1c(C(=O)OC)[nH]c2cc(OC)ccc12	–	–	–	–	–	–	·
COC(=O)c1[nH]c2cc(OC)ccc2c1N	–	–	–	–	–	75	–
C[C@@H]1CN([C@H](C)CO)C(=O)c2cc(NS(=O)(=O)c3ccc(Cl)cc3)ccc2O[C@@H](C)CCCCO[C@@H]1CN(C)C(=O)NC1CCCCC1	–	·	·	·	·	·	·
O=C1CCCc2c1cc(C(=O)NCCCN1CCOCC1)c(=O)n2-c1ccc(Cl)cc1	–	–	–	–	·	58	–
Cc1ccc(-n2c3c(cc(C(=O)NCCCN4CCOCC4)c2=O)C(=O)CC(C)(C)C3)cc1	–	–	–	–	·	–	·
COc1ccc(C(=O)c2sc(Nc3ccccc3)nc2N)cc1	–	–	–	–	–	–	·
COc1ccc(C(=O)c2sc(Nc3ccccc3F)nc2N)cc1	–	–	–	–	–	61	–
Nc1nc(Nc2ccccc2)sc1C(=O)c1ccccc1	–	82	–	–	·	81	–
CCCC(=O)Nc1ccc2c(c1)C(=O)N(C)C[C@H](OC)[C@H](C)CN(Cc1ccc(-c3ccccn3)cc1)[C@@H](C)CO2	–	·	·	·	·	·	·
CCN1C=CC(=C2C(=O)c3ccccc3C2=O)C=C1	–	–	–	–	–	57	–
CCCN1C=CC(=C2C(=O)c3ccccc3C2=O)C=C1	–	–	–	–	–	–	·
N=C1/C(=C\c2ccc(-c3cccc(C(=O)O)c3)o2)C(=O)N=C2SC=C(c3ccccc3)N12	·	–	–	–	–	61	–
Cc1ccccc1-n1c(C)cc(/C=C2/C(=N)N3C(c4ccccc4)=CSC3=NC2=O)c1C	–	–	–	–	–	–	·
COc1nc(C)ccc1-c1noc(-c2ccccn2)n1	–	–	–	–	·	57	–
COc1ccccc1-c1nc(-c2ccc(C)nc2OC)no1	–	–	–	–	–	–	·
C[C@H]1CN([C@@H](C)CO)C(=O)CCCn2cc(nn2)CO[C@H]1CN(C)S(=O)(=O)c1ccc(F)cc1	–	·	·	·	·	·	·
Nc1nc(N)nc(-c2ccc(Cl)c(Cl)c2)n1	–	–	–	–	–	84	–
C[C@H](CO)N1C[C@H](C)[C@H](CN(C)CC2CCCCC2)Oc2c(NC(=O)C3CCCCC3)cccc2C1=O	–	·	·	·	·	·	·
COc1ccc2cc3cc(C(=O)NCCN4CCN(Cc5ccccc5)CC4)oc3nc2c1	–	–	–	–	–	52	–
CC1CCN(CCCNC(=O)c2coc3nc4ccccc4nc23)CC1	–	–	–	–	–	–	·
Cc1ccc2cc3cc(C(=O)NCCN4CCOCC4)oc3nc2c1	–	–	–	–	–	–	·
CCCCN(CC)CCCNC(=O)c1cc2cc3ccc(OC)cc3nc2o1	–	–	–	–	–	50	–
COc1ccc2nc3oc(C(=O)NC4CCN(Cc5ccccc5)CC4)cc3cc2c1	–	–	–	–	·	–	·
SMILES	Yeast UUG start	CDK5 p35 inh	dFosB activator	CAL PDZ FP-1	CAL PDZ FP-2	DYRK1A inh	ADP-Glo artifact
CCCN(CCC)CCCNC(=O)c1cc2cc3ccc(OC)cc3nc2o1	–	–	–	–	–	–	·
COc1ccc2cc3cc(C(=O)NCCCN4CCOCC4)oc3nc2c1	–	–	–	–	–	58	–
COc1ccc2cc3cc(C(=O)NCCCN4CCC(C)CC4)oc3nc2c1	–	–	–	–	–	53	–
C[C@@H]1CN([C@H](C)CO)C(=O)c2cc(NS(=O)(=O)c3ccc(Cl)cc3)ccc2O[C@H]1CN(C)S(=O)(=O)c1ccccc1	–	·	·	·	·	·	·
COc1ccc2cc3cc(C(=O)NCc4cccs4)oc3nc2c1	–	–	–	–	–	–	·
CCN1CCN(CCCNC(=O)c2cc3cc4ccc(OC)cc4nc3o2)CC1	–	–	–	–	·	88	–
CCCCC(=O)Nc1ccc(Cl)cc1F	–	·	·	·	·	·	·
CCCCC(=O)Nc1cc(Cl)ccc1C(=O)O	–	–	–	–	·	57	–
CN1c2ccc(-c3ccccc3F)cc2[C@H]2[C@H](CCN2C(=O)c2ccccn2)[C@@H]1CO	–	·	·	·	·	·	·
O=C(c1ccccc1)c1ccc2cc(O)ccc2c1	·	–	–	–	–	64	–
COc1cc(/C=C2\SC(=S)N(NC(=O)c3ccccc3OC)C2=O)ccc1O	–	–	–	–	–	–	·
COc1cc(/C=C2\SC(=S)N(NC(=O)c3cccc(O)c3)C2=O)ccc1O	–	–	–	–	–	61	–
NC(N)=NC(=O)c1nc(Cl)c(N)nc1N	–	–	–	–	–	64!	–
COC(=O)c1nc(Cl)c(Cl)c(N)c1Cl	·	–	–	–	–	–	·
Cc1ccc(-c2ccc3c(c2)O[C@@H](CN(C)C(=O)Nc2ccc(F)cc2)[C@H](C)CN([C@@H](C)CO)S3(=O)=O)cc1	–	·	·	·	·	·	·
CCCCC(CC)CN=C(N)NC(N)=NCCCCCCN=C(N)NC(N)=NCC(CC)CCCC (configuration not stated)	–	–	–	–	–	52	–
CCCCC(CC)CO (configuration not stated)	–	–	–	–	–	–	·
CCCNC(=O)C[C@@H]1C[C@@H]2c3cc(NC(=O)Nc4ccc(OC)cc4)ccc3O[C@@H]2[C@@H](CO)O1	–	·	·	·	·	·	·
CCCn1c(NCc2ccco2)nc2c1c(=O)n(C)c(=O)n2C	–	–	–	–	–	–	·
Cn1c(=O)c2c(nc(NCc3ccco3)n2CC(O)COc2ccccc2)n(C)c1=O (configuration not stated)	–	–	–	–	–	56	–
CC(C)NC(=O)N(C)C[C@H]1Oc2ccc(NC(=O)Nc3cccc4ccccc34)cc2C(=O)N([C@@H](C)CO)C[C@H]1C	–	·	·	·	·	·	·
CC1(C)Nc2ccc(O)cc2-c2c1ssc2=S	·	–	–	–	–	52	–
O=C(C[C@@H]1CC[C@H](NC(=O)C2CCC2)[C@@H](CO)O1)NCCCN1CCOCC1	–	·	·	·	·	·	·
Cc1c(O)ccc2c(CN(C)Cc3ccccc3)cc(=O)oc12	–	–	–	–	–	59	–
Cc1c(O)ccc2c(CN3CCN(Cc4ccccc4)CC3)cc(=O)oc12	–	–	–	–	–	–	·
COc1cccc(Nc2nc(NCCO)c3ccccc3n2)c1	·	–	–	–	–	52	–
COc1ccc2c(c1)CCc1cc(C(=O)O)sc1-2	–	–	–	–	–	55	–
COc1ccc(NC(=O)N(C)C[C@@H]2Oc3c(NS(=O)(=O)c4ccc(C)cc4)cccc3C(=O)N([C@@H](C)CO)C[C@H]2C)cc1	–	·	·	·	·	·	·
N#Cc1c2ccc(OCC(=O)NCc3ccco3)cc2n2ccccc12	–	–	–	–	–	–	·
